{"source": "patent US12458688B2", "about": "“Epitopes” (Scancell Limited, priority 2018, dated 2025)", "system": "HLA transgenic mice", "test": "T cell response to Hcit peptides in HLA transgenic mice (screening, ex vivo ELISpot)", "parameters": "species or system mouse", "conditions": "yes/no; Hcit peptide with CpG/MPLA", "experimental": "C57BL/6 mice (Charles River, UK), HLA-DR4 mice (Model #4149, Taconic, USA), HLA-A2/DR1 (HHDII/DR1, Pasteur Institute), HLA-A2.1+/+HLA-DP4+/+hCD4+/+ (HLA-HHDII/DP4) transgenic mice (EM: 02221, European Mouse Mutant Archive) described in patent WO2013/017545 A1 (EMMA repository, France) were used, aged between 8 and 12 weeks. Peptides were dissolved in PBS to 1 mg/ml and then emulsified (a series of dilutions) with CpG ODN 1826 and MPLA 6 μg/mouse of each (Invivogen, UK). Peptides (25 μg/mouse) were injected subcutaneously at the base of the tail. Mice were immunised at days 1, 7 and 14 for peptide immunisation. Spleens were removed for analysis at day 21 unless stated otherwise.\nELISpot assays were performed using murine IFNγ, IL-17 and IL-10 capture and detection reagents according to the manufacturer's instructions (Mabtech, Sweden). […] After incubation, captured IFNγ, IL-10 and IL-17 were detected by biotinylated anti-IFNγ, IL-10 and IL-17 antibodies and developed with a streptavidin alkaline phosphatase and chromogenic substrate. […] Spots were analysed and counted using an automated plate reader (Cellular Technologies Ltd).\nScreening was performed to identify potential homocitrullinated vimentin epitopes in mice. […] On day 21 the mice were culled and the immune responses to each peptide within the immunising pool were assessed by ex vivo ELISpot. […]"}
{"substance": "LARLDLER-Hcit-VESLQEEIAFL-Hcit [Vimentin 215-235 Hcit]", "values": [{"measurement": "T cell response", "result": "no"}]}
